# Literature values, collected in patent publication US20070248702A1, “Use of CB2 receptors agonists for the treatment of Huntington's disease” (priority 2004, published 2007).
# Amino acid sequences for entries named in this document (tags omitted).
# UniProt P34972, whole entry: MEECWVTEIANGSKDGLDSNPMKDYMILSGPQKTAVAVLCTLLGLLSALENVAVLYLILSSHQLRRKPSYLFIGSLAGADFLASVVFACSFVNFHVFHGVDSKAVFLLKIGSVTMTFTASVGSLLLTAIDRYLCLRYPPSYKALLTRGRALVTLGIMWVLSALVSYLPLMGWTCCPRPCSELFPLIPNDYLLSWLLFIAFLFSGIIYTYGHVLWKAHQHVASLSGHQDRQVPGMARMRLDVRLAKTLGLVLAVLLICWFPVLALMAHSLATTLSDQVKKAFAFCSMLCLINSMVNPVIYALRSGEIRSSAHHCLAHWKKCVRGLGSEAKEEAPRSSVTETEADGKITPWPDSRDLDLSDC
# Biological target: human CB2 receptors (Homo sapiens, UniProt P34972)
# Settings: read-out: IC50 human CB2 receptors; as disclosed in WO 03/064359; cited from earlier work
structure (smiles),measurement,value
"CCCCCCC(C)(C)c1cc(OC)c(C2C=C(CO)C3CC2C3(C)C)c(OC)c1 (single isomer, unassigned; (+)) [HU-308, (+){4-[4-(1,1-dimethylheptyl)-2,6-dimethoxyphenyl]-6,6-dimethyl-bicyclo[3.1.1]hept-2-en-2-yl}-methanol]",IC50,0.0133 µM
